Data reported in patent US20220002403A1.

Sequences of proteins named here, by UniProt entry; tags and fusion partners are left off. A line that says so, or that is headed by a name, gives the form on record, which may keep a tag or linker.
UniProt Q8N423, other isoform, or with tags, fused parts or gaps: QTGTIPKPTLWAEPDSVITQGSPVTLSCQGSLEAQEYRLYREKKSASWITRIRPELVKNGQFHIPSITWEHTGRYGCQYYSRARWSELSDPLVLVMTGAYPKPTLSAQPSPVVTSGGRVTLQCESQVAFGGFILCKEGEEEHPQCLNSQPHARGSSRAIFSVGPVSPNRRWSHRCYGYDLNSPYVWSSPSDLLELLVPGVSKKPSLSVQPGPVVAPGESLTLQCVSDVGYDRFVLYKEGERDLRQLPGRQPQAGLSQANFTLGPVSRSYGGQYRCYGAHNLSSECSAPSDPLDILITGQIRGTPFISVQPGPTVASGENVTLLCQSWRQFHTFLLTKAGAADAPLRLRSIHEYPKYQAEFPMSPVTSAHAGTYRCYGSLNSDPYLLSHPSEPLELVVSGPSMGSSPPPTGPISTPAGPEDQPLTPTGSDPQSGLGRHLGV

How the values were obtained:
[1] = target: ILT4-His (recombinant extracellular domain of human ILT4 fused to a poly-Histidine tag) (human) (UniProt Q8N423); test: SPR (Biacore T200): Fc fusion captured by human Fc capture on CM5 chip, ILT4-His titrated; 1:1 kinetic model; n=2
[2] = target: ILT4-His (recombinant extracellular domain of human ILT4 fused to a poly-Histidine tag) (human) (UniProt Q8N423); test: SPR, steady-state approximation; ratio of KD to that of 1E1(G4)
[3] = target: ILT4-His (recombinant extracellular domain of human ILT4 fused to a poly-Histidine tag) (human) (UniProt Q8N423); test: SPR (Biacore T200): Fc fusion captured, ILT4-His titrated; steady-state approximation
[4] = target: ILT4-His (recombinant extracellular domain of human ILT4 fused to a poly-Histidine tag) (human) (UniProt Q8N423); test: SPR, kinetic fit; ratio of KD to that of 1E1(G4)

With “HLA-G1 Fc (recombinant extracellular domain of HLA-G (isoform 1) fused to the human IgG1 Fc domain) (from UniProt P17693 25-308) (Fc fusion)” the Kd [1] was 11 µM, the koff [1] was 1.1 s⁻¹ and the KD Ratio [2] was 670. The Kd [3] was 11 µM and the KD Ratio [4] was 630.
